Measurements published in publication PMC11477000, “Enantioselective Binding of Proton Pump Inhibitors to Alpha1-Acid Glycoprotein and Human Serum Albumin—A Chromatographic, Spectroscopic, and In Silico Study” (International Journal of Molecular Sciences, 2024).

System: α1-acid glycoprotein (AGP)
Experiment: Bound percentage by HPLC on AGP column, extrapolation to zero organic modifier
Assay type: in vitro ADME, human
Conditions: average of IPA, EtOH, MeOH
Procedure: Chromatographic columns containing proteins can be used to determine the percentage of drug binding. A plot of the natural logarithm of the retention factors against the proportion of organic modifiers was created. […] The intercept of these linear equations can be used to calculate the bound percentage according to Equation (4) (see in Section 3.2).
Chromatographic measurements were carried out on two separate HPLC systems. […] Chromatographic parameters were calculated based on the following equations. The retention factor (k) was calculated as:(1) k=(tr−t0)/t0 where tr is the retention time of the investigated analyte, and t0 is the dead time, determined as the first peak appearance in the chromatogram. Resolution was calculated based on the following equation:(2) Rs=2(t2−t1)/(w1+w2) where t2 and t1 are the retention times of the second and first eluted enantiomers, respectively, while w is the peak width. The separation factor (α) was calculated as follows:(3) α=k2/k1 where k1 and k2 are the retention factors of the first- and second-eluting enantiomers, respectively. […]

Bound percentage (b%), average: 96.65 ± 2.36%
SMILES: COc1ccc2[nH]c([S@+]([O-])Cc3ncc(C)c(OC)c3C)nc2c1 [R-omeprazole]
